Structures are written as SMILES. The list shows a part of the results, in another mix than the full data. Calls of active or inactive are those of the source.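 Rule for the calls: active = mean luciferase reporter signal, scaled so untreated is 0 and the glycosylation-blocking control 100, at or above a set limit in every replicate; inconclusive = mean reaches the limit but not every replicate does; inactive = mean below the limit.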

This experiment is described as follows: increase of ERlucT glycosylation luciferase signal, primary screen, N-linked glycosylation inhibitor project, D54 ERlucT cells, luminescence, set 2 (AID 588692).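 Note: luciferase carries N-glycosylation sites so blocking glycosylation raises the light; 0% = median of neutral control wells and 100% = median of 100 nM tunicamycin wells.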 The settings on record: 24 h, at 12.5 µM, active compounds read high, percent of 100 nM tunicamycin response.
In the case of `CCC(=O)N(c1ccccc1)C1(COC)CCN(CCn2nnn(CC)c2=O)CC1`, the reporter increase was inactive: -0.277%.

For `CCC(=O)N(c1ccccc1)C1(COC)CCN(CCc2cccs2)CC1`, the reporter increase was inactive: -7.23%.

These data come from PubChem BioAssay AID588692 (Broad Institute, 2011).
